This is an account of results in article PMC7723054.

The other results are listed elsewhere or left out.

T1: LIN28A (human?, UniProt Q9H9Z2 1-209)
T1 sequence: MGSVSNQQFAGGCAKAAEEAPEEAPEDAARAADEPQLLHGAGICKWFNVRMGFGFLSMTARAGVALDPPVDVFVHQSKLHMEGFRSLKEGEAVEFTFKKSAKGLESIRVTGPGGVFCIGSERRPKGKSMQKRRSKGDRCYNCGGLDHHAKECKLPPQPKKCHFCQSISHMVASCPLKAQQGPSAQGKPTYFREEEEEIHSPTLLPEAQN

T2: CIRBP (Homo sapiens, UniProt Q14011 1-172)
T2 sequence: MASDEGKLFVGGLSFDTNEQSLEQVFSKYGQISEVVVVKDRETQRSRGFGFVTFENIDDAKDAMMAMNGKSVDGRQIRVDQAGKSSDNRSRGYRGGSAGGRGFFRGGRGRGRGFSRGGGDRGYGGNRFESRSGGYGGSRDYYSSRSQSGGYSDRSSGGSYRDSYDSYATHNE

T3: DHX36 (Homo sapiens, UniProt Q9H2U1 1-1008)
T3 sequence: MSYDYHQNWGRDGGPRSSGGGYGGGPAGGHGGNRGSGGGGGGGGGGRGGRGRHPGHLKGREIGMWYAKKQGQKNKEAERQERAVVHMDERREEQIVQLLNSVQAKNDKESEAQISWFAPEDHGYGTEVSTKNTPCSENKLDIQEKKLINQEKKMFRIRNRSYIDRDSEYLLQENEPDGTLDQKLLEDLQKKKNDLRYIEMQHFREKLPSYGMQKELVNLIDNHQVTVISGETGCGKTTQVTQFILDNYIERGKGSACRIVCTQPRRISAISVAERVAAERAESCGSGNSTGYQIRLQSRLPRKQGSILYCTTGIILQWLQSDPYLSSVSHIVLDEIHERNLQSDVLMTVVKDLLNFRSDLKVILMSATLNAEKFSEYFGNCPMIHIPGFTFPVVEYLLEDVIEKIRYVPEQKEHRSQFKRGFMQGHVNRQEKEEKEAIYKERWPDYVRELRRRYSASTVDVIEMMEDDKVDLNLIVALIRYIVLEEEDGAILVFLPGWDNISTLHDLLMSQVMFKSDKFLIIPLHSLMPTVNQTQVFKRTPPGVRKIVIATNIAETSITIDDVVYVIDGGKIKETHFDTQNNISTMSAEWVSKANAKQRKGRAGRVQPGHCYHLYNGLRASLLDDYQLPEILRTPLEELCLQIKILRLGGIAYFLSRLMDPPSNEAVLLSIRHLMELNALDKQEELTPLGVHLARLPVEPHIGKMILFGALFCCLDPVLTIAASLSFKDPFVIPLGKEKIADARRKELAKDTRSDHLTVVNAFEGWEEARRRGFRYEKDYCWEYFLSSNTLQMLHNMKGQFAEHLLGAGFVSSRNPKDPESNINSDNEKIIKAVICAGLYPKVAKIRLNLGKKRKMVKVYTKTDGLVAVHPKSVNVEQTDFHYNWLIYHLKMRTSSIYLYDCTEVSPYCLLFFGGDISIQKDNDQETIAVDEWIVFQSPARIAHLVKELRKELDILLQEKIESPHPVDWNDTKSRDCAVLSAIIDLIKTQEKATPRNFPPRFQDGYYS

B1: hsa-mir-6875 (structured_RNA)
RNA: GGGACGAGAUUAUAUACGACGCAUUCGUGGUGUACGAAGUUUCAGCAGAAGGCCUAUGGUGAUUUGCAUUCUUGCUGAAGCUUCGUGCAC
B2: hsa-mir-8088 (structured_RNA)
RNA: GGGAGAAGUUAGUCGCAUAAGUCAAGAAGGUGUACGAAGUUUCAGCGGUAUGGAUUCUGUUGUUUUGGCAACAUUCUGCUGAAGCUUCGUGCAC
B3: hsa-mir-3659 (structured_RNA)
RNA: GGGAGCUAGUGGCAAGACGUACAUUAAUGGUGUACGAAGUUUCAGCCACGUGCUGCUUGUAUAGACAUGAGGCUGAAGCUUCGUGCAC
B4: hsa-mir-4433b (structured_RNA)
RNA: GGGAAUUUAAACCGGGCGAGAAUCUUAGGGUGUACGAAGUUUCAGCCCUGUUUGAAUAUUUCACCAGAAACAGGGCUGAAGCUUCGUGCAC
B5: hsa-mir-7155 (structured_RNA)
RNA: GGGAAUGAACGAAAUACGGGCUGGUAUAGGUGUACGAAGUUUCAGCGCCAUCUGGUUGUGACAUCACUGAUGGCGCUGAAGCUUCGUGCAC
B6: hsa-mir-10a (structured_RNA)
RNA: GGGAGUUCUCGACAGGCCGGAAACUCAAGGUGUACGAAGUUUCAGCUUUGUGUAAGGAAUUUUGUGGUCACAAAGCUGAAGCUUCGUGCAC
B7: hsa-mir-4768 (structured_RNA)
RNA: GGGAAGCGUGGCGCGCUACUACACUAAUGGUGUACGAAGUUUCAGCAUGGAUAUGGGAACUGUGAUGUCCAGCUGAAGCUUCGUGCAC
B8: hsa-mir-4453 (structured_RNA)
RNA: GGGAACCGGCUGUAUCUGUGAUACCCGCGGUGUACGAAGUUUCAGCGGUUUCCUUCGGGGCAGGUGGGGACUGCUCCUUUGGGAGGAAGGAGGAGGCCGCUGAAGCUUCGUGCAC
B9: hsa-mir-6165 (structured_RNA)
RNA: GGGACUGAGACAGUAGUAUCGUCGGCCAGGUGUACGAAGUUUCAGCGGAGAGGAUCCACCUGUCCUGUCCGCUGAAGCUUCGUGCAC
B10: hsa-mir-3919 (structured_RNA)
RNA: GGGAACAGACUAUGUGAAUGGGCGACUGGGUGUACGAAGUUUCAGCCUACUAGUUUGUAGUAGUUCGUAGCAGGCUGAAGCUUCGUGCAC
B11: hsa-mir-548z (structured_RNA)
RNA: GGGACAUCAAUAACGGAGGAACACCAAGGGUGUACGAAGUUUCAGCUUUGCUACUGAAAGUAAUGGCAAAGCUGAAGCUUCGUGCAC
B12: hsa-mir-4523 (structured_RNA)
RNA: GGGACGAUUUCUCGGGAAAUUUCGGAACGGUGUACGAAGUUUCAGCCUGUGUGAGGACUAGAGGCGGGCUGAAGCUUCGUGCAC
B13: hsa-mir-4782 (structured_RNA)
RNA: GGGAAUGUAUUCUCGCGCGCUUAGGGCCGGUGUACGAAGUUUCAGCAUCAAGAAAAGAUUUGGUGUUCUUGAUGCUGAAGCUUCGUGCAC
B14: hsa-mir-4480 (structured_RNA)
RNA: GGGACAUGACAGACGAUGGUAUCACGACGGUGUACGAAGUUUCAGCGGCCACCCAGGGAGUAAGUAGCCGCUGAAGCUUCGUGCAC
B15: hsa-mir-5702 (structured_RNA)
RNA: GGGAAGAAAGGCUCAGUGGACGGCGAUUGGUGUACGAAGUUUCAGCUCCAACCUGAAAUCCUUCUGUAGGUUGAGGCUGAAGCUUCGUGCAC
B16: hsa-mir-1273f (structured_RNA)
RNA: GGGACUAAGACCAUACUAUUGCGUUCGCGGUGUACGAAGUUUCAGCAGUGAGCUGAGAUCACGCAACUGCUGAAGCUUCGUGCAC
B17: hsa-mir-4483 (structured_RNA)
RNA: GGGAAAAGUCGACCGAUAAAUUACGAGAGGUGUACGAAGUUUCAGCCCCAUAUAAUAUUAGGGGGCUGAAGCUUCGUGCAC
B18: hsa-mir-6835 (structured_RNA)
RNA: GGGAAAUGGCCGGAUUACUGUUCACCCUGGUGUACGAAGUUUCAGCGAAGCGAGAUGUUUGUCUAAAGCUGAAGCUUCGUGCAC
B19: hsa-mir-4722 (structured_RNA)
RNA: GGGAAGUGGUCUUUAUAUGUUGUGCGGUGGUGUACGAAGUUUCAGCAGGUUGGCUGGGCCAGGCCUGACCUGCUGAAGCUUCGUGCAC
B20: hsa-mir-627 (structured_RNA)
RNA: GGGAAAUACGCAUAGUGGUUAACCGGACGGUGUACGAAGUUUCAGCAAGAGGAGGUGGUUGUUUUCCUCCUCUUGCUGAAGCUUCGUGCAC
B21: hsa-mir-4636 (structured_RNA)
RNA: GGGAAAGAGCCAAAGGAUCACAAGGUUUGGUGUACGAAGUUUCAGCUUAGCCCAGCAAUGGGAGAGUGCUAAGCUGAAGCUUCGUGCAC
B22: hsa-mir-5192 (structured_RNA)
RNA: GGGAAAUGCACCACAAAUCUAUGGCCAAGGUGUACGAAGUUUCAGCUCCUGGGAAGCAUGGUAGCCAGGAGCUGAAGCUUCGUGCAC
B23: hsa-mir-101-2 (structured_RNA)
RNA: GGGAUAUCCGAGCGUGAUGGAAAUCUCUGGUGUACGAAGUUUCAGCGAUGCUGUAUAUCUGAAAGGUACGCUGAAGCUUCGUGCAC
B24: NEAT1_ParasoR_ID41 (structured_RNA)
RNA: GGGAAGUAGGCACGCGAAAACUGAGUUAGGUGUACGAAGUUUCAGCGUCUGUAAGAUGAGUUAGGGUGACUUGCUAAUAGACGCUGAAGCUUCGUGCAC
B25: hsa-mir-548a-1 (structured_RNA)
RNA: GGGAAACAAAAGGAACAAAAGUCCACCCGGUGUACGAAGUUUCAGCUUUGCCAUUAAAAGUAACGACAAAGCUGAAGCUUCGUGCAC
B26: hsa-mir-3689e (structured_RNA)
RNA: GGGACAGGUAUACUGGAUCAAGUCACGCGGUGUACGAAGUUUCAGCGGGAGGUAUGAUAUCGUGGUUCCUGCUGAAGCUUCGUGCAC

One assay concerns the target T1, LIN28A. Description: FOREST: bead pull-down of RNA structure library v1, barcode microarray; U1A/LIN28A: 20 mM HEPES pH 7.5, 80 mM KCl, 20 mM NaCl, 10% glycerol, 2 mM DTT, 0.1 ug/uL BSA, 4 C; BG4/CIRBP/DHX36: 10 mM Tris-HCl pH 7.5, 100 mM KCl (or LiCl),; high values mean tight binding.
For B1, the binding signal was found to be 1.58 z-score.

In the case of B2, the binding signal was 1.55 z-score.

B3 displayed a binding signal of 1.59 z-score.

B4 registered a binding signal of 1.69 z-score.

On to B5, for which the binding signal was 1.86 z-score.

Molecule B6 displayed a binding signal of 1.91 z-score.

For B7, the binding signal amounted to 1.78 z-score.

The molecule B8 returned a binding signal of 1.76 z-score.

On to B9, for which the binding signal amounted to 1.77 z-score.

In the case of B10, the binding signal is 1.68 z-score.

In turn, B11 yielded a binding signal of 1.85 z-score.

On to B12, for which the binding signal worked out at 1.82 z-score.

B13 had a binding signal of 1.86 z-score.

As for B14, the binding signal was found to be 1.56 z-score.

B15 gave a binding signal of 1.61 z-score.

In turn, B16 had a binding signal of 1.65 z-score.

Molecule B17 had a binding signal of 1.64 z-score.

The molecule B18 registered a binding signal of 1.57 z-score.

B19 had a binding signal of 1.59 z-score.

The molecule B20 displayed a binding signal of 1.59 z-score.

B21 displayed a binding signal of 1.82 z-score.

B22: the binding signal amounted to 1.66 z-score.

Molecule B23 gave a binding signal of 1.62 z-score.

With B24, the binding signal turned out to be 1.56 z-score.

B25 registered a binding signal of 1.9 z-score.

In turn, B26 yielded a binding signal of 1.81 z-score.

Another assay deals with T2, CIRBP. The assay is described as above.
Turning to B1, the binding signal was -0.372 z-score.

With B2, the binding signal was 1.25 z-score.

Molecule B3 displayed a binding signal of 0.0197 z-score.

Consider B4, for which the binding signal was -0.173 z-score.

B5 displayed a binding signal of 1.67 z-score.

Molecule B6 returned a binding signal of -0.333 z-score.

As to B7, the binding signal is 0.23 z-score.

For the molecule B8, the binding signal was -1.02 z-score.

With B9, the binding signal turned out to be 2.22 z-score.

B10 gave a binding signal of 0.752 z-score.

For the molecule B11, the binding signal amounted to 1.56 z-score.

In turn, B12 showed a binding signal of 0.847 z-score.

As for B13, the binding signal is -0.085 z-score.

Molecule B14 yielded a binding signal of 2.24 z-score.

As for B15, the binding signal was -1.09 z-score.

B16 showed a binding signal of 0.686 z-score.

B17 came in with a binding signal of 1.63 z-score.

Molecule B18 yielded a binding signal of 0.947 z-score.

Regarding B19, the binding signal came out at 2.3 z-score.

Regarding B20, the binding signal was found to be 2.36 z-score.

Take B21: the binding signal was 1.19 z-score.

For the molecule B22, the binding signal came to 0.0873 z-score.

Consider B23, for which the binding signal is -0.384 z-score.

B24 came in with a binding signal of 1.61 z-score.

For the molecule B25, the binding signal was -1.5 z-score.

For B26, the binding signal is -1.33 z-score.

The target of the next assay is T3, DHX36. The description is as above.
For B1, the binding signal was 0.491 z-score.

Regarding B2, the binding signal is 1.51 z-score.

B3 had a binding signal of 0.35 z-score.

Regarding B4, the binding signal worked out at 0.836 z-score.

As to B5, the binding signal is -1.02 z-score.

On to B6, for which the binding signal was -0.412 z-score.

In turn, B7 registered a binding signal of -0.0408 z-score.

B8 yielded a binding signal of 2.45 z-score.

As to B9, the binding signal turned out to be 1.71 z-score.

B10 yielded a binding signal of 0.081 z-score.

B11: the binding signal was -0.0642 z-score.

Turning to B12, the binding signal is 1.29 z-score.

B13 showed a binding signal of -0.578 z-score.

In the case of B14, the binding signal turned out to be 0.808 z-score.

Turning to B15, the binding signal is -0.0806 z-score.

The molecule B16 returned a binding signal of -0.425 z-score.

B17 registered a binding signal of 1.36 z-score.

The molecule B18 showed a binding signal of -0.244 z-score.

For B19, the binding signal was found to be 1.83 z-score.

As to B20, the binding signal amounted to 2.78 z-score.

B21: the binding signal was -0.0671 z-score.

For the molecule B22, the binding signal was -0.293 z-score.

For the molecule B23, the binding signal stood at 2.07 z-score.

Molecule B24 had a binding signal of -0.17 z-score.

Molecule B25 displayed a binding signal of -0.273 z-score.

Consider B26, for which the binding signal is -0.0835 z-score.
